From patent US12054502B2, “Multifunctional immunity-targeted micromolecule anti-cancer medicine Bestazomib (Bestazomib) and preparation method and application thereof” (SHANDONG HUBBLE KISEN BIOLOGICAL TECHNOLOGY CO., LTD., priority 2018, dated 2024)

Chains of the proteins cited; added tags and fusions are not shown. Lines headed by an entry give the natural chain unless they say otherwise; changes in a name come on top.
UniProt P28074: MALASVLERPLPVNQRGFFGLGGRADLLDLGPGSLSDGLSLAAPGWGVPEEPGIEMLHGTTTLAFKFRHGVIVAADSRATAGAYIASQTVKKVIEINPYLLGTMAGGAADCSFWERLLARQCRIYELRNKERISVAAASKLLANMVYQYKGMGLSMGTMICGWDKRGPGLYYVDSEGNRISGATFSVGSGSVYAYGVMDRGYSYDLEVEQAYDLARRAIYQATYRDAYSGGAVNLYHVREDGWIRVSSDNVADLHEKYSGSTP

Target: 20S Proteasome (Homo sapiens (Human), UniProt P28074)
Test: 20S proteasome detection kit, in vitro proteasome activity test (7-AMC fluorescence)
Type: biochemical
Conditions: average of three tests
Description: The proteasome interacts with its substrate to produce the fluorescent substance 7-amino-4-methylcoumarin (7-AMC), and the concentration of 7-AMC is positively correlated with the activity of the proteasome. Measure the fluorescence intensity at 380/460 nm to calculate the inhibition rate based on the absorbance of the inhibitor group and the control group, and calculate the IC50 value.

IC50: 6.3 nM
Compound: CC(C)C[C@H](NC(=O)CNC(=O)c1cc(Cl)ccc1Cl)B(O)O [Ixazomib, reference compound]
